# AlphaSeq binding of Ab-14 heavy chain variants to a spike HR2 peptide

Reference: Li et al. 2023, doi:10.1038/s41467-023-39022-2. File: FLAb, binding data.

All variants were tested on one target, the spike HR2 peptide PDVDLGDISGINAS (SARS-CoV-2).

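The parent was found by panning a naive human phage display library on the peptide. These sequences belong to a second round, designed from the earlier measurements on random variants of the parent. Group labels follow the data file (Ctrl: baseline library sampled from a position-specific scoring matrix, with some repeated check sequences; Rand: our label for a block that the file lists under HC and that is probably the random mutants of the ten best first-round binders; En: ensemble of fine-tuned language models; GP: Gaussian process model; GPLM: also part of the Gaussian process libraries; HC: hill climbing; Gen: genetic algorithm; Gibbs: Gibbs sampling; a sequence that several methods proposed may carry one label only). In AlphaSeq, yeast of one mating type display the scFv and yeast of the other type display the target. The frequency of each diploid, read from paired DNA barcodes, reflects how well the two displayed proteins bind. Read counts were normalised to the haploid input and turned into Kd by a linear fit to BCL2-family pairs of known affinity, for each replicate. Mating was done six times.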

Each scFv is VH, a (GGGGS)3 linker, VL, as in the parent Ab-14, and differs from it in the CDRs of the heavy chain only.
VH: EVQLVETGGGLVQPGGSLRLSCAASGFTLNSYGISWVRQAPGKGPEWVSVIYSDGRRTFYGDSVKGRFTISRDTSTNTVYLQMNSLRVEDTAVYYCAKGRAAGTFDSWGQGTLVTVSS
VL: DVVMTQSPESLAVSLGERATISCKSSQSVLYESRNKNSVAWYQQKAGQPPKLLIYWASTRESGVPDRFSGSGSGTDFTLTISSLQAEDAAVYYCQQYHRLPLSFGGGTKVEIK

The parent's heavy chain CDRs are GFTLNSYGIS, VIYSDGRRTFYGDSVK, GRAAGTFDS; each variant's own CDRs replace them letter for letter.
Values are log10 of the apparent Kd in nM; lower means stronger binding.
The mean shown is taken over the replicates in which the pair was detected.
An entry "no signal" has no value in the source: the pair was not observed among the diploids in any replicate. This suggests poor binding but is not conclusive.
Background: pairings of all heavy chain designs with three empty control strains gave a value in 1% of cases (median 2.08, 5th percentile 0.84). Values in that range, when seen in few replicates, are hard to tell from nonspecific mating. Also given: how often the same scFv was detected with the empty control strains.

With GFSLNSYGIS | VIYADGRRTFYGDSVK | GRAAGTFSS [Ctrl] the result was 0.56 (6 of 6 replicates; controls 1 of 18).
With GFQLNSYGIS | VIYSDGRRTFYIDSVK | GRIAGTFDS [GP_HC] the result was no signal (0 of 6 replicates; controls 0 of 18).
With GFTLNSYGIS | VIYSDGRRTFYGDSVK | GRAAGTFTD [GP_HC] the result was no signal (0 of 6 replicates; controls 0 of 18).
With GFDLNSYGIS | VIYSDGRRTFYGDDVK | GEAAGTFDK [GP_Gibbs] the result was 0.58 (6 of 6 replicates; controls 0 of 18).
With GFDLNEYGIS | VIYADGVRKAYSDSVK | GNVAGTFDV [En_Gen] the result was -0.80 (6 of 6 replicates; controls 1 of 18).
With GFDLNEYGIS | VIYADGMRTFYVDSVK | GQVAGIFNV [En_HC] the result was -0.11 (6 of 6 replicates; controls 0 of 18).
With GFTLNSYGIS | VIYSDGRRTFYADDVK | GEAAGTFDK [GP_Gibbs] the result was 0.12 (6 of 6 replicates; controls 0 of 18).
With GFELSEYGIS | VIYSDGRRTFYGDSVK | GRAAGTFDS [Ctrl] the result was 0.98 (6 of 6 replicates; controls 0 of 18).
With GFDLNEYGIS | VIYADGKRTQYIDSVK | GEQAGTFDS [En_HC] the result was -0.03 (6 of 6 replicates; controls 0 of 18).
With GFHLNSYGIS | VIYSDGRRTFYADDVK | GRTAGTFDS [GPLM_Gen] the result was -0.17 (6 of 6 replicates; controls 0 of 18).
With GFSLNWYGIS | VIYSDGRRTFYGDSVK | GRTAGTFDS [GPLM_Gen] the result was 1.81 (6 of 6 replicates; controls 0 of 18).
With GFTLNSYGIS | VIYSDGKRTFYGDSVK | GWVAGTFDS [GPLM_Gen] the result was 0.50 (6 of 6 replicates; controls 0 of 18).
With GFDLNEYGIS | VIYADGVRTAYADSVK | GENAGTFDV [En_Gen] the result was 0.10 (6 of 6 replicates; controls 1 of 18).
With GFNLNEYGIS | VIYADGRRTFYADSVK | GQIAGTFDV [En_HC] the result was -0.63 (6 of 6 replicates; controls 0 of 18).
With GFTLNDYGIS | VIYSDGRRTFYADSVK | GRAAGTFSS [GPLM_HC] the result was no signal (0 of 6 replicates; controls 0 of 18).
With GFDLNEYGIS | VIYADGKRTSYADSVK | GQLAGTFDQ [En_HC] the result was -0.68 (6 of 6 replicates; controls 1 of 18).
With GFTLNSYGIS | VIYSDGRRTFYGDSVK | GRAACTFDW [Ctrl] the result was no signal (0 of 6 replicates; controls 0 of 18).
With GFDLNSYGIS | VIYSDGRRTFYGDSVK | GSAAGTFDD [GP_Gen] the result was 0.84 (6 of 6 replicates; controls 0 of 18).
With GFDLNSYGIS | VIYSDGRRTFYGDSVK | GWQAGTFDS [GP_Gen] the result was 0.46 (6 of 6 replicates; controls 1 of 18).
With GFTLNSYGIS | VIYSDGRRTFYSDSVK | IRAAGTMDS [Ctrl] the result was no signal (0 of 6 replicates; controls 0 of 18).
With GFTLLSYGIS | VIYSDGRRTFYGDSVK | GRAAGTFDQ [Ctrl] the result was no signal (0 of 6 replicates; controls 1 of 18).
With GFTLDSYPIS | VIYSDGRRTFYGDSVK | GRAAGTALD [Rand] the result was no signal (0 of 6 replicates; controls 0 of 18).
With GFNLNSYGIS | VIYSDGRRTFYHDSVK | GQEAGTFDS [GPLM_Gibbs] the result was -0.64 (6 of 6 replicates; controls 1 of 18).
With GFSLNDYGIS | VIYSDGRRTFYDDSVK | GRQAGTFDS [GPLM_Gen] the result was 0.03 (6 of 6 replicates; controls 0 of 18).
With GFQIDEYGIS | VIYADGLRAAYSQDVK | GMDTGDFMD [En_Gibbs] the result was no signal (0 of 6 replicates; controls 0 of 18).
With GFTLDSYGIS | VIYSDGRRVFYGDAVK | GRAAGTFDS [Ctrl] the result was 0.86 (4 of 6 replicates; controls 0 of 18).
With GFDLNEYGIS | VIYADGQRTAYADSVK | GENAGTFDM [En_Gen] the result was -0.31 (6 of 6 replicates; controls 0 of 18).
With GFTLPSYGIS | VIYSDGRRTFYTDSVK | GDAAGRFDS [Ctrl] the result was no signal (0 of 6 replicates; controls 0 of 18).
With GFDLNEYGIS | VIYADGKRTAYADDVK | GNNAGTFDV [En_Gen] the result was -0.23 (6 of 6 replicates; controls 0 of 18).
With GFPLNEYGIS | VIYADGRRTFYGDSVK | GDAAGTFDS [GP_HC] the result was -0.38 (6 of 6 replicates; controls 1 of 18).

The last 3 entries again:

CDR-H1	CDR-H2	CDR-H3	group	mean, log10 nM	seen in	control signals
GFTLPSYGIS	VIYSDGRRTFYTDSVK	GDAAGRFDS	Ctrl	no signal	0 of 6	0 of 18
GFDLNEYGIS	VIYADGKRTAYADDVK	GNNAGTFDV	En_Gen	-0.23	6 of 6	0 of 18
GFPLNEYGIS	VIYADGRRTFYGDSVK	GDAAGTFDS	GP_HC	-0.38	6 of 6	1 of 18

The authors' rule: three or more of the six replicates give a measured affinity, fewer mean a poor binder.
Values of this round are not directly comparable with the first-round values of the same sequences.
Of ten entries with the parent sequence, four were seen in most replicates (averages 0.34 to 2.37), three in one and three in none, so single entries are noisy.